# Molecular target: T1, CB1R (Homo sapiens, UniProt P21554)
# Sequences of proteins named here, by UniProt entry; tags and fusion partners are left off.
# UniProt P21554, whole entry: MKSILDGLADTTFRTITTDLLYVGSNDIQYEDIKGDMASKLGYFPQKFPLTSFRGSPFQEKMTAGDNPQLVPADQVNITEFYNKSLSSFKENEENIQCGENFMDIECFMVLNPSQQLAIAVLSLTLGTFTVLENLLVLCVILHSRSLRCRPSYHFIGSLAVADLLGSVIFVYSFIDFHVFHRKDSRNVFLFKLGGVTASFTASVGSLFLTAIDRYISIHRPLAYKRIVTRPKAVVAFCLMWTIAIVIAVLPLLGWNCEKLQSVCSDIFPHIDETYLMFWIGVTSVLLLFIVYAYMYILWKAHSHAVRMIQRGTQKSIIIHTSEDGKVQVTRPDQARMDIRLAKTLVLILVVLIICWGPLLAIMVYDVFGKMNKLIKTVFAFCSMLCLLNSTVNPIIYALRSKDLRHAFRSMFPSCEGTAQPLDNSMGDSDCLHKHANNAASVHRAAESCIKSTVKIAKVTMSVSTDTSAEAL
# T1 construct: expressed in transfected cells; host or cells: HEK293 (ATCC), stably transfected; membrane preparation
# Assay: Competitive radioligand binding assay, [3H]-CP55,940, HEK293 membranes
# Procedure: HEK293 cells stably transfected with δ, κ, and μ opioid subtypes were a generous gift from Roth Laboratories (University of North Carolina at Chapel Hill, NC, USA). Opioid cells were maintained as previously described. Membranes were made by washing the cells with cold PBS. The cells were then scraped in cold 50 mM Tris-HCl, pH 7.4 buffer. The solution was centrifuged at 5200× g for 10 min at 4 °C. Next, the supernatant was discarded, and the pellet was washed with more Tris-HCl buffer, homogenized via Sonic Dismembrator (Fisher Scientific, Pittsburgh, PA, USA) and then centrifuged at 24,000× g for 40 min at 4 °C. […] The total membrane protein concentration was measured using a Pierce BCA Protein Assay Kit (Thermo Scientific, Rockford, IL, USA) as per the manufacturer’s protocol.
# Cannabinoid and opioid competitive radioligand binding assays were performed as previously described. […] Percent displacements were evaluated for all the cannabinoid and opioid subtypes with a triplicate of a fixed concentration (10 µg/mL for extracts and fractions, 10 μM for purified compounds). […] Radiodetection was measured with 50 µL (cannabinoid) or 25 µL (opioid) MicroScint^TM-20 on a TopCount NXT HTS Microplate Scintillation Counter (PerkinElmer, Waltham, MA, USA). The IC50 and Ki values were calculated by a non-linear curve fit model using GraphPad Prizm 5.0 software (GraphPad Software Inc., San Diego, CA, USA). […]
smiles,measurement,value
"C=CCc1ccc(O)c(-c2ccc(OC)c(CC=C)c2)c1 [Compound 1, 4-O-methylhonokiol]",IC50,7.69 µM
same,Ki,3.85 ± 0.89 µM
